# Experimental data: patent publication US11230556B2 (Merck Sharp & Dohme Corp., priority 2016, dated 2022)
# Amino acid sequences for entries named in this document (tags omitted).
# UniProt P08173, whole entry: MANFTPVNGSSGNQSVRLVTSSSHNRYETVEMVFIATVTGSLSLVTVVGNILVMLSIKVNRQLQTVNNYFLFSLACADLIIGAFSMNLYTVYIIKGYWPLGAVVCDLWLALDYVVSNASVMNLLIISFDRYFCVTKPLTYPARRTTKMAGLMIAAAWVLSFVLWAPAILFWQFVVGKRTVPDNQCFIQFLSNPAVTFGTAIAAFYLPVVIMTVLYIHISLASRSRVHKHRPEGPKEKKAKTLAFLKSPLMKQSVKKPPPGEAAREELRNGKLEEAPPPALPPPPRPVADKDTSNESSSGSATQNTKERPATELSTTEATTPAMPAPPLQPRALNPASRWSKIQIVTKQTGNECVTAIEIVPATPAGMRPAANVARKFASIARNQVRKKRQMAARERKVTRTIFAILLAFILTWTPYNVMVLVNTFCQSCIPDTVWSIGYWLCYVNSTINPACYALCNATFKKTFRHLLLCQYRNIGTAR
# Target: human M4 muscarinic acetylcholine receptor (Homo sapiens, UniProt P08173)
# Assay: human FLIPR-based M4 PAM assay (CHO-K1 cells with human M4 receptor and Gαqi5, calcium dye fluorescence, acetylcholine at 20% of maximum response)
# Conditions: read-out: M4 PAM IP, inflection point (IP) of 4 parameter logistic dose response curve, human M4 receptor + Gαqi5, FLIPR Tetra
# Description: In a typical experiment the M4 muscarinic acetylcholine receptor modulating activity of the compounds of the present invention was determined in accordance with the following experimental method. CHO-K1 cells stably transfected with human M4 receptor and chimeric G-protein Gαqi5 (Coward P, et al., Analytical Biochemistry, 270:242-248 (1999)) are thawed from liquid N2 storage, resuspended in growth medium, plated in black, clear bottom 384 well plates, and incubated 16-20 hours at 37° C., 5% CO2. On the day of assay, growth medium is removed, the cells are washed 2 times with wash buffer, and cells are incubated in dye loading buffer at 37° C., 5% CO2 for ˜1 hour. Following dye loading the cell plates are placed in a FLIPR Tetra instrument and while monitoring dye fluorescence (excitation […]), 10 uL of test substance at increasing concentrations is added, and fluorescence values are recorded for 4 min. Next, 10 uL of acetylcholine is added (final concentration calculated so as to achieve 20% of the maximum acetycholine response), and the fluorescence reading is continued for 3.5 min. In some cases, a third addition of acetylcholine (final concentration calculated to achieve 70% of the maximal acetylcholine response) is performed. […]
structure (smiles),measurement,value
COc1ccc(OC2CCN(c3nc4cnc(C(F)(F)F)n4cc3C)CC2)cn1,pEC50,6.54

# pEC50: −log10 of the molar value.
